Literature values, collected in article PMC9543247 (Angewandte Chemie (International Ed. in English), 2022).

System: HDMX

LTFEHYWAQLTS [pDI]
affinity for HDMX (in words): high affinity
